Measurements from patent publication US20110263664A1, “Inhibitors of PIM-1 Protein Kinases, Compositions and Methods for Treating Prostate Cancer” (MUSC FOUNDATION FOR RESEARCH DEVELOPMENT, priority 2007, published 2011).

The chains behind the UniProt entries cited, without tags or fusion partners.
UniProt P11309, whole entry: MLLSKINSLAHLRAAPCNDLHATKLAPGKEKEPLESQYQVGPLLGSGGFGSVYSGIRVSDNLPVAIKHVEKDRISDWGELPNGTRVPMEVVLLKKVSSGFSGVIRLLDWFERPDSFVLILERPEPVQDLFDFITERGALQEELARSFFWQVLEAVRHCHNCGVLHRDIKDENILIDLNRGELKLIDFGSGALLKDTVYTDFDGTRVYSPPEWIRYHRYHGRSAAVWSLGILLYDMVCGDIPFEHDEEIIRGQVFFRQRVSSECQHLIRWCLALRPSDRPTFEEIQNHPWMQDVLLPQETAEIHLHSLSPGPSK

Key:
[1] = tested on: Human prostate cancer PC3 cells; test: Cytotoxicity assay (MTS), PC3 cells, Table 3; details: PC-3, 48 h, read-out: IC50 (PC3 cell assay)
[2] = target: PIM1 (Homo sapiens, UniProt P11309); test: Pim-1 protein kinase assay (Procedure 1), Table 1; type: biochemical; set-up: purchased Upstate 14-573
[3] = tested on: Cdk2 activity in K562 cells; details: K562 cells treated 72 hours, 10% FCS; histone H1 as substrate

Row | IC50 [2] | Structure (SMILES) | IC50 [1] | decreased Cdk2 activity [3]
1 | 73 ± 7.5 µM | CCOc1ccc(/C=C2/C(=O)NC(=O)N2Cc2ccccc2)cc1 [Compound D29] | 18 ± 9 µM | –
2 | – | O=C1NC(=O)/C(=C/c2ccc(Br)cc2)S1 [Compound D11] | 85 ± 12 µM | –
3 | – | O=C1NC(=O)/C(=C/c2cccc(C(F)(F)F)c2)S1 [Compound D5] | – | ~50%
4 | 38 ± 23 µM | COc1ccc(/C=C2/C(=O)NC(=O)N2Cc2ccccc2)cc1 [Compound D28] | 74 ± 20 µM | –
5 | – | CN(C)c1ccc(/C=C2/C(=O)NC(=O)N2Cc2ccccc2)cc1 [Compound D31] | 57 ± 23 µM | –
